Results on 22 compounds are retold here after patent US12583836B2 (Anaxis Pharma Pty Ltd, priority 2020, dated 2026).

Sequences of proteins named here, by UniProt entry; tags and fusion partners are left off. A change or cut given only in a name is not applied to a line headed by its entry.
UniProt Q9Y572: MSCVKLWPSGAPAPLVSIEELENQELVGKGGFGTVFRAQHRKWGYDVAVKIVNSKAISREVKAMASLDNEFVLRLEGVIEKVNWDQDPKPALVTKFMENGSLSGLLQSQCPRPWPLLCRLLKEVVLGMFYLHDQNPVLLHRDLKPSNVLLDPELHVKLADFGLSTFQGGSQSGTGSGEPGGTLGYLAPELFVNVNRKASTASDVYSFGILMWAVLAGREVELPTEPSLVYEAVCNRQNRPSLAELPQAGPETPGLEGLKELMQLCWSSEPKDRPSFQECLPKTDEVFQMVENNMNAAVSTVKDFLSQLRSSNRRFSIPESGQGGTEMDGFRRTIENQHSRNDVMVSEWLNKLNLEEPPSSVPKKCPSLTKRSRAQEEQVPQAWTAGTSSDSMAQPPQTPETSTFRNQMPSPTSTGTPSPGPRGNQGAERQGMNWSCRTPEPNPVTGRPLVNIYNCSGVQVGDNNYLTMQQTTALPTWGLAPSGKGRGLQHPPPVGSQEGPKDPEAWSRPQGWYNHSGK

As a reminder, the Kd is a measure of binding affinity in units of concentration.

What all share (details): equilibrium dissociation constant, class symbols
One experiment deals with T1, MLKL (full length) (Homo sapiens, UniProt Q8NB16).
T1 construct: purchased DiscoverX (KINOMEscan service); host or cells: E. coli BL21-derived (T7 phage) or HEK293
T1 sequence (Q8NB16 1-471): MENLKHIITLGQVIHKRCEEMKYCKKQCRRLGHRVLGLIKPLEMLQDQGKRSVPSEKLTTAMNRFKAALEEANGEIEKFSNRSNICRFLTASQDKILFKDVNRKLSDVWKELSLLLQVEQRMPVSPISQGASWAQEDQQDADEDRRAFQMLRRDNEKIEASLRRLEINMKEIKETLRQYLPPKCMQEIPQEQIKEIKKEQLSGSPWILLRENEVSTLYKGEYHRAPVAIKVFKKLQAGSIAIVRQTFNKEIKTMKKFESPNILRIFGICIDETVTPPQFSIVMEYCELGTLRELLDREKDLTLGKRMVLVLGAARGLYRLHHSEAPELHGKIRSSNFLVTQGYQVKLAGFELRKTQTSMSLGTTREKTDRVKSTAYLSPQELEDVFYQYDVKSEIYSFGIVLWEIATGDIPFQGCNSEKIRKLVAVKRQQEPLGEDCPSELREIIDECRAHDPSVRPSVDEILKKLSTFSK
The experiment is described as follows: KINOMEscan binding assay, MLKL.

Another experiment has as its target T2, RIP1 (Homo sapiens, UniProt Q13546).
T2 construct: purchased DiscoverX (KINOMEscan service); host or cells: E. coli BL21-derived (T7 phage) or HEK293
T2 sequence (Q13546 1-671): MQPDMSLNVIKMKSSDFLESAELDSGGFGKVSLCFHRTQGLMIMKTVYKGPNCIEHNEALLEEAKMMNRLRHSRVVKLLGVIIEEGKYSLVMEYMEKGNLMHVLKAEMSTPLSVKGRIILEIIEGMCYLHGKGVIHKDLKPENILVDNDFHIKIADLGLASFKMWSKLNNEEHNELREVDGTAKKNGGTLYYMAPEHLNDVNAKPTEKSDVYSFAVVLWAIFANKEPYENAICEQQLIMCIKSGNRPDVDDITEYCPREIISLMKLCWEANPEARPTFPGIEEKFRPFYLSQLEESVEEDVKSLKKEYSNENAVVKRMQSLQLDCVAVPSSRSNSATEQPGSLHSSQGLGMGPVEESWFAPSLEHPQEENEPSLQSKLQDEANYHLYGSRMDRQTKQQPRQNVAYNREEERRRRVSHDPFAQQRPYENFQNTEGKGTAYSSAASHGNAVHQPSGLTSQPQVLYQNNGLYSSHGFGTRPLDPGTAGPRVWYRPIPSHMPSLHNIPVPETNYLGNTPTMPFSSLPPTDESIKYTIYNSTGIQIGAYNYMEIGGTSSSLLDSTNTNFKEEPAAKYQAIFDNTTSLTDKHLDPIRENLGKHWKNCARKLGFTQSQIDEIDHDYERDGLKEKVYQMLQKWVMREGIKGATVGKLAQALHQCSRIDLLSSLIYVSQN
Nature of the experiment: KINOMEscan binding assay, RIP1.

Another experiment deals with T3, RIP3 (Homo sapiens, UniProt Q9Y572).
T3 construct: purchased DiscoverX (KINOMEscan service); host or cells: E. coli BL21-derived (T7 phage) or HEK293
The experiment is described as follows: KINOMEscan binding assay, RIP3.

Structures are written as SMILES. Some results are limits rather than exact numbers.

With `C[C@H](Oc1cc(-c2n[nH]c(Nc3cnccn3)c2C(N)=O)ccc1NS(=O)(=O)C(F)F)c1ncco1` (single isomer, unassigned) [Compound 279], the Kd was less than 0.01 µM on MLKL (full length), greater than 30 µM on RIP1 and greater than 30 µM at RIP3.

On to `CCS(=O)(=O)Nc1ccc(-c2n[nH]c(Nc3cnccn3)c2C(N)=O)cc1OCc1ccccc1F` [Compound 2, 3-(4-(ethylsulfonamido)-3-((2-fluorobenzyl)oxy)phenyl)-5-(pyrazin-2-ylamino)-1H-pyrazole-4-carboxamide], for which the dissociation constant (Kd) on MLKL (full length) was 0.01 to 1 µM; on RIP1, greater than 30 µM; at RIP3, greater than 30 µM.

With `CCS(=O)(=O)Nc1ccc(-c2n[nH]c(Nc3cccc(C(F)(F)F)n3)c2C(N)=O)cc1OCc1ccc(Cl)cc1` [Compound 4, 3-(3-((4-chlorobenzyl)oxy)-4-(ethylsulfonamido)phenyl)-5-((6-(trifluoromethyl)pyridin-2-yl)amino)-1H-pyrazole-4-carboxamide], the dissociation constant (Kd) is 0.01 to 1 µM at MLKL (full length), greater than 30 µM at RIP1 and greater than 30 µM on RIP3.

Turning to `CCS(=O)(=O)Nc1ccc(-c2n[nH]c(Nc3cnccn3)c2C(N)=O)cc1N(C)Cc1ccc(F)cc1` [Compound 13, 3-(4-(ethylsulfonamido)-3-((4-fluorobenzyl)(methyl)amino)phenyl)-5-(pyrazin-2-ylamino)-1H-pyrazole-4-carboxamide], the dissociation constant Kd on MLKL (full length) was 0.01 to 1 µM; on RIP1, greater than 30 µM; at RIP3 it was greater than 30 µM.

`CCS(=O)(=O)Nc1ccc(-c2n[nH]c(Nc3ccnc(OC)c3)c2C(N)=O)cc1OCc1ccc(F)cc1` [Compound 18, 3-(4-(ethylsulfonamido)-3-((4-fluorobenzyl)oxy)phenyl) 5-((2-methoxypyridin-4-yl)amino)-1H-pyrazole-4 carboxamide]: the Kd at MLKL (full length) was less than 0.01 µM; on RIP1, greater than 30 µM; at RIP3, 1 to 30 µM.

Turning to `CCS(=O)(=O)Nc1ccc(-c2n[nH]c(Nc3cnccn3)c2C(N)=O)cc1OCCc1ccc(F)cc1` [Compound 24], the dissociation constant Kd on MLKL (full length) is less than 0.01 µM; at RIP1, greater than 30 µM; on RIP3, greater than 30 µM.

Regarding `CCS(=O)(=O)Nc1ccc(-c2n[nH]c(Nc3ccccn3)c2C(N)=O)cc1OCc1ccc(Cl)cc1` [Compound 39, 3-(3-((4-chlorobenzyl)oxy)-4-(ethylsulfonamido)phenyl)-5-(pyridin-2-ylamino)-1H-pyrazole-4-carboxamide], the Kd on MLKL (full length) is less than 0.01 µM; at RIP1, 1 to 30 µM; at RIP3 it was greater than 30 µM.

With `CCS(=O)(=O)Nc1ccc(-c2n[nH]c(Nc3cnccn3)c2C(N)=O)cc1OCc1ccc(Cl)cc1` [Compound 42, 3-(3-((4-chlorobenzyl)oxy)-4-(ethylsulfonamido)phenyl)-5-(pyrazin-2-ylamino)-1H-pyrazole-4-carboxamide], the results for the Kd at MLKL (full length), at RIP1 and at RIP3 were less than 0.01 µM, greater than 30 µM and greater than 30 µM, respectively.

Consider `COCCS(=O)(=O)Nc1ccc(-c2n[nH]c(Nc3cccc(C(F)(F)F)n3)c2C(N)=O)cc1` [Compound 50, 3-(4-((2-methoxyethyl)sulfonamido)phenyl)-5-((6-(trifluoromethyl)pyridin-2-yl)amino)-1H-pyrazole-4-carboxamide], for which the dissociation constant (Kd) at MLKL (full length) was 0.01 to 1 µM; at RIP1, greater than 30 µM; at RIP3, greater than 30 µM.

In the case of `CC(C)S(=O)(=O)Nc1ccc(-c2n[nH]c(Nc3cccc(C(F)(F)F)n3)c2C(N)=O)cc1` [Compound 54, 3-(4-((1-methylethyl)sulfonamido)phenyl)-5-((6-(trifluoromethyl)pyridin-2-yl)amino)-1H-pyrazole-4-carboxamide], the Kd at MLKL (full length) was less than 0.01 µM; at RIP1, greater than 30 µM; at RIP3 it was 1 to 30 µM.

As for `Cc1ccc(CS(=O)(=O)Nc2ccc(-c3n[nH]c(Nc4cccc(C(F)(F)F)n4)c3C(N)=O)cc2)cc1` [Compound 57, 3-(4-((p-tolylmethyl)sulfonamido)phenyl)-5-((6-(trifluoromethyl)pyridin-2-yl)amino)-1H-pyrazole-4-carboxamide], the equilibrium dissociation constant (Kd) is 0.01 to 1 µM at MLKL (full length), 1 to 30 µM at RIP1 and greater than 30 µM on RIP3.

For the compound `CCS(=O)(=O)Nc1ccc(-c2n[nH]c(Nc3cnccn3)c2C(N)=O)cc1OC` [Compound 61, 3-(4-(ethylsulfonamido)-3-methoxyphenyl)-5-(pyrazin-2-ylamino)-1H-pyrazole-4-carboxamide], the dissociation constant (Kd) on MLKL (full length) was 0.01 to 1 µM; at RIP1, greater than 30 µM; on RIP3, 1 to 30 µM.

As for `CCS(=O)(=O)Nc1ccc(-c2n[nH]c(Nc3cnccn3)c2C(N)=O)cc1OCc1ccc(F)cc1` [Compound 62, 3-(4-(ethylsulfonamido)-3-((4-fluorobenzyl)oxy)phenyl) 5-(pyrazin-2-ylamino)-1H pyrazole-4-carboxamide], the Kd at MLKL (full length) is less than 0.01 µM; at RIP1, greater than 30 µM; on RIP3, greater than 30 µM.

As to `CCS(=O)(=O)Nc1ccc(-c2n[nH]c(Nc3cnc4ccccc4n3)c2C(N)=O)cc1` [Compound 67, 3-(4-(ethylsulfonamido)phenyl)-5-(quinoxalin-2-ylamino)-1H-pyrazole-4-carboxamide], the Kd on MLKL (full length) was less than 0.01 µM; on RIP1, greater than 30 µM; on RIP3 it was greater than 30 µM.

As to `NC(=O)c1c(-c2ccc(NS(=O)(=O)C3CC3)cc2)n[nH]c1Nc1cnccn1` [Compound 68, 3-(4-(cyclopropanesulfonamido)phenyl)-5-(pyrazin-2-ylamino)-1H-pyrazole-4-carboxamide], the figures for the dissociation constant (Kd) on MLKL (full length), on RIP1 and on RIP3 were less than 0.01 µM, greater than 30 µM and greater than 30 µM, respectively.

Regarding `NC(=O)c1c(-c2ccc(NS(=O)(=O)CCC(F)(F)F)cc2)n[nH]c1Nc1cnccn1` [Compound 72, 5-(pyrazin-2-ylamino)-3-(4-((3,3,3-trifluoropropyl)sufonamido)phenyl)-1H-pyrazole-4-carboxamide], the values for the equilibrium dissociation constant (Kd) at MLKL (full length), at RIP1 and at RIP3 were less than 0.01 µM, greater than 30 µM and greater than 30 µM, respectively.

Take `CCS(=O)(=O)Nc1ccc(-c2n[nH]c(Nc3cnc(C(F)(F)F)cn3)c2C(N)=O)cc1` [Compound 75, 3-(4-ethanesulfonamidophenyl)-5-{[5-(trifluoromethyl)pyrazin-2-yl]amino}-1H-pyrazole-4-carboxamide]: the equilibrium dissociation constant (Kd) at MLKL (full length) was less than 0.01 µM; on RIP1, greater than 30 µM; on RIP3 it was greater than 30 µM.

As for `NC(=O)c1c(-c2ccc(NS(=O)(=O)c3ccc(OC(F)(F)F)cc3)cc2)n[nH]c1Nc1cnccn1` [Compound 78, 5-(pyrazin-2-ylamino)-3-(4-((4-(trifluoromethoxy)phenyl)sulfonamido)phenyl)-1H-pyrazole-4-carboxamide], the Kd on MLKL (full length) was 0.01 to 1 µM; at RIP1, greater than 30 µM; on RIP3, greater than 30 µM.

`NC(=O)c1c(-c2ccc(NS(=O)(=O)c3ccc(C(F)(F)F)cc3)cc2)n[nH]c1Nc1cnccn1` [Compound 79, 5-(pyrazin-2-ylamino)-3-(4-((4-(trifluoromethyl)phenyl)sulfonamido)phenyl)-1H-pyrazole-4-carboxamide]: the figures for the dissociation constant (Kd) at MLKL (full length), at RIP1 and at RIP3 were 0.01 to 1 µM, greater than 30 µM and greater than 30 µM, respectively.

For `CCS(=O)(=O)Nc1ccc(-c2n[nH]c(Nc3cccc(C(F)F)n3)c2C(N)=O)cc1` [Compound 92, 5-((6-(difluoromethyl)pyridin-2-yl)amino)-3-(4-(ethylsulfonamido)phenyl)-1H-pyrazole-4-carboxamide], the Kd at MLKL (full length) is less than 0.01 µM; on RIP3 it was 1 to 30 µM.

For `CCS(=O)(=O)Nc1ccc(-c2n[nH]c(Nc3cnccn3)c2C(N)=O)cc1OCc1ccccn1` [Compound 261, 3-{4-ethanesulfonamido-3-[(pyridin-2-yl)methoxy]phenyl}-5-[(pyrazin-2-yl)amino]-1H-pyrazole-4-carboxamide], the Kd at RIP1 and on RIP3 was greater than 30 µM in each case.

In the case of `Cc1nccc(Nc2[nH]nc(-c3ccc(NS(=O)(=O)C(F)F)c(O[C@@H](C)c4ccc(F)cc4)c3)c2C(N)=O)n1` [Compound 309, (S)-3-(4-((difluoromethyl)sulfonamido)-3-(1-(4-fluorophenyl)ethoxy)phenyl)-5-((2-methylpyrimidin-4-yl)amino)-1H-pyrazole-4-carboxamide], the dissociation constant Kd at RIP3 is greater than 30 µM.
